Reference: patent US20020035061A1, “COMPOSITIONS AND METHODS FOR TREATING INFECTIONS USING CATIONIC PEPTIDES ALONE OR IN COMBINATION WITH ANTIBIOTICS” (priority 1996, published 2002)

Columns and labels:
[1] = Circular dichroism spectroscopy; assay type: physicochemical; conditions: for min λ, Phosphate buffer / Conformation in buffer: 10 mM sodium phosphate buffer, pH 7.2; for Conformation in buffer / Conformation in TFE: CD
[2] = Solubility in broth (visual inspection); assay type: physicochemical
Protocol: Solubility of the peptide in formulation buffer is an additional parameter that may be examined. Several different assays may be used, such as appearance in buffer. Briefly, peptide is suspended in solution, such as broth or formulation buffer. The appearance is evaluated according to a scale that ranges from (a) clear, no precipitate, (b) light, diffuse precipitate, to (c) cloudy, heavy precipitate. Finer gradations may be used. In general, less precipitate is more desirable. However, some precipitate may be acceptable.
The solubility of peptide analogues is assessed in calcium and magnesium supplemented Mueller Hinton broth by visual inspection. The procedure employed is that used for the broth dilution assay except that bacteria are not added to the wells. The appearance of the solution in each well is evaluated according to the scale: (a) clear, no precipitate, (b) light diffuse precipitate and (c) cloudy, heavy precipitate.

[3] = Single and multiple dose toxicity, intravenous injection, formulations; assay type: in vivo, outbred ICR mice
[4] = tested on: mammalian red blood cells; conditions: for % Lysis: 37° C., 1 hour
[5] = Single dose toxicity, intraperitoneal injection, formulations; assay type: in vivo, outbred ICR mice
Protocol: The single dose toxicity of a cationic peptide and antibiotic agent combination is examined in outbred ICR mice. Intraperitoneal injection of the combination in isotonic saline is carried out at increasing dose levels. The survival of the animals is monitored for 7 days. The number of animals surviving at each dose level is used to determine the maximum tolerated dose (MTD). In addition, the MTD can be determined after administration of the peptide and agent by different routes, at different time points, and in different formulations.
The single dose toxicity of MBI 10CN and MBI 11CN is examined in outbred ICR mice (Table 32).
The single dose toxicity of MBI 10CN and MBI 11CN in different formulations is also examined in outbred ICR mice (Table 36). Intraperitoneal injection (groups of 2 mice) of MBI 10CN in formulation D show no toxicity up to 29 mg/kg and under the same conditions MBI 11CN show no toxicity up to 40 mg/kg.

[6] = Acute single dose toxicity, intravenous route, isotonic saline; assay type: in vivo; conditions: Swiss CD1 mice, 5 days
Protocol: In vivo toxicity of a peptide is measured through administration of a range of doses to animals, typically mice, by a route defined in part by the intended clinical use. […]. Indolicidin analogues less toxic than indolicidin are preferred.
(§1) The acute, single dose toxicity of various indolicidin analogues is tested in Swiss CD1 mice using various routes of administration. In order to determine the inherent toxicities of the peptide analogues in the absence of any formulation/delivery vehicle effects, the peptides are all administered in isotonic saline with the final pH between 6 and 7.
Intravenous route. […]. […]

[7] = Peptide stability in rabbit serum or plasma, with or without protease inhibitors; assay type: in vitro ADME; conditions: 22° C., Amastatin and bestatin at 100 μM
Protocol: A 1 mg/mL solution of MBI 11B7CN in isotonic saline is added to freshly prepared heat-inactivated rabbit serum, to give a final peptide concentration of 100 μg/mL and is incubated at 32° C.
A series of peptide stability studies are performed to investigate the action of protease inhibitors on peptide degradation. Peptide is added to rabbit serum or plasma, either with or without protease inhibitors, then incubated at 22° C. for 3 hrs. Protease inhibitors tested include amastatin, bestatin, COMPLETE protease inhibitor cocktail, leupeptin, pepstatin A and EDTA. […] For this experiments 10 mM stock solutions of amastatin and bestatin are prepared in dimethylsulfoxide. These solutions are diluted 1:100 in heat-inactivated rabbit serum and incubated at 22° C. for 15 mins prior to addition of peptide. MBI 11B7CN is added to the serum at a final concentration of 100 μg/mL and incubated for 3 hrs at 22° C. After the incubation period, the serum samples are analyzed on an analytical C8 column (Waters Nova Pak C8 3.9×170 mm) with detection at 280 nm. In FIG. 13, MBI 11B7CN elutes at 25 min.
Peptide is extracted from plasma using C8 Sep Pak cartridges at peptide concentrations between 0 and 50 μg/mL. Each extraction also contains MBI 11CN at 10 μg/mL as an internal standard. […] The peptides are detected at 280 nm. […] MBI 11B7CN is detected over background at concentrations of 5 μg/mL and above.

[8] = Acute single dose toxicity, intraperitoneal route, isotonic saline; assay type: in vivo; conditions: Swiss CD1 mice, 5 days
Protocol: In vivo toxicity of a peptide is measured through administration of a range of doses to animals, typically mice, by a route defined in part by the intended clinical use. The survival of the animals is recorded and LD50, LD90-100, and maximum tolerated dose (MTD) can be calculated to enable comparison of analogues. Indolicidin analogues less toxic than indolicidin are preferred.
as §1
Intraperitoneal route. Groups of 6 mice are injected with peptide doses of between 80 and 5 mg/kg in 500 μl dose volumes. […] The LD50 values are calculated using the method of Reed and Muench (J. of Amer. Hyg. 27:493-497, 1938).

sheep RBC = assay: Red blood cell (RBC) lysis assay, standardized conditions (1% RBC); assay type: cell-based; conditions: 1% (v/v) sheep RBC, pH 6-7; for % lysis at 5 μg/ml: 5 μg/ml peptide; for % lysis at 50 μg/ml: 50 μg/ml peptide; for % lysis at 500 μg/ml: 500 μg/ml peptide
E. cloacae = E. cloacae ECL007; unmodified parent peptide
[9] = CD spectrum, phosphate buffer and 40% (v/v) trifluoroethanol
[10] = phosphate buffer and 40% (v/v) trifluoroethanol

Sequence | min λ, Phosphate buffer ([1]; CD spectrum) | min λ, TFE [1, 9] | Conformation in buffer [1] | Conformation in TFE [1, 10] | % Lysis [4] | LD50 [6] | LD90-100 [6] | MTD [6] | % lysis at 5 μg/ml (sheep RBC) | % lysis at 50 μg/ml (sheep RBC) | % lysis at 500 μg/ml (sheep RBC) | also measured
ILPWKWPWWPWRR [MBI 10CN] | 201 nm | 203 nm | Unordered | Unordered | 4.3% |  |  |  |  |  |  | max λ, TFE [1, 9]: ˜219 nm; solubility in calcium and magnesium supplemented Mueller Hinton broth ([2]; visual inspection): less soluble than MBI 11CN; MTD ([3]; Intravenous injection, single dose, outbred ICR mice (Table 32)): 5.6 mg/kg; MTD ([3]; iv, formulation D): 5.6 mg/kg; toxicity ([3]; iv, formulation D, 11 mg/kg): 40%; toxicity ([3]; iv, formulation D, 22 mg/kg): 100%; MTD ([3]; iv, formulation D, ICR mice): 5.6 mg/kg; lysis [4]: 3.9%; red blood cell lysis [4]: substantial lysis; MTD ([5]; Intraperitoneal injection, single dose, outbred ICR mice (Table 32)): >29 mg/kg; MTD ([5]; ip, formulation D, ICR mice): 29 mg/kg and >29 mg/kg; dose showing no toxicity ([5]; ip, formulation D, groups of 2 mice): up to 29 mg/kg
ILRWPWWPWRRK [MBI 11B7CN] | 200 nm |  | Unordered | Unordered | 3.2% | 7.5 mg/kg | 16 mg/kg | 4 mg/kg | 4% | 13% | 46% | degradation of peptide in plasma over 3 hrs [7]: prevent the degradation; LD50 [8]: 52 mg/kg; LD90-100 [8]: >80 mg/kg; MTD [8]: 30 mg/kg
ILRWVWWVWRRK [MBI 11F4CN] | 202, nm and 220 nm | 206, nm and 222 nm | Unordered |  |  | 15 mg/kg | 20 mg/kg | 12 mg/kg | 4% | 32% | 38% | solubility, relative to the peptides tested [2]: most insoluble; MIC, Peptide (E. cloacae): 32 µg/mL; hemolytic, relative to the peptides tested [4]: most insoluble and hemolytic

Where “and” joins values, the source holds several entries; their conditions need not be identical. Equal values may be shown once.
